{"sequences": {"note": "Amino acid sequences for entries named in this document (tags omitted).", "UniProt Q9NYV4, whole entry, looked up": "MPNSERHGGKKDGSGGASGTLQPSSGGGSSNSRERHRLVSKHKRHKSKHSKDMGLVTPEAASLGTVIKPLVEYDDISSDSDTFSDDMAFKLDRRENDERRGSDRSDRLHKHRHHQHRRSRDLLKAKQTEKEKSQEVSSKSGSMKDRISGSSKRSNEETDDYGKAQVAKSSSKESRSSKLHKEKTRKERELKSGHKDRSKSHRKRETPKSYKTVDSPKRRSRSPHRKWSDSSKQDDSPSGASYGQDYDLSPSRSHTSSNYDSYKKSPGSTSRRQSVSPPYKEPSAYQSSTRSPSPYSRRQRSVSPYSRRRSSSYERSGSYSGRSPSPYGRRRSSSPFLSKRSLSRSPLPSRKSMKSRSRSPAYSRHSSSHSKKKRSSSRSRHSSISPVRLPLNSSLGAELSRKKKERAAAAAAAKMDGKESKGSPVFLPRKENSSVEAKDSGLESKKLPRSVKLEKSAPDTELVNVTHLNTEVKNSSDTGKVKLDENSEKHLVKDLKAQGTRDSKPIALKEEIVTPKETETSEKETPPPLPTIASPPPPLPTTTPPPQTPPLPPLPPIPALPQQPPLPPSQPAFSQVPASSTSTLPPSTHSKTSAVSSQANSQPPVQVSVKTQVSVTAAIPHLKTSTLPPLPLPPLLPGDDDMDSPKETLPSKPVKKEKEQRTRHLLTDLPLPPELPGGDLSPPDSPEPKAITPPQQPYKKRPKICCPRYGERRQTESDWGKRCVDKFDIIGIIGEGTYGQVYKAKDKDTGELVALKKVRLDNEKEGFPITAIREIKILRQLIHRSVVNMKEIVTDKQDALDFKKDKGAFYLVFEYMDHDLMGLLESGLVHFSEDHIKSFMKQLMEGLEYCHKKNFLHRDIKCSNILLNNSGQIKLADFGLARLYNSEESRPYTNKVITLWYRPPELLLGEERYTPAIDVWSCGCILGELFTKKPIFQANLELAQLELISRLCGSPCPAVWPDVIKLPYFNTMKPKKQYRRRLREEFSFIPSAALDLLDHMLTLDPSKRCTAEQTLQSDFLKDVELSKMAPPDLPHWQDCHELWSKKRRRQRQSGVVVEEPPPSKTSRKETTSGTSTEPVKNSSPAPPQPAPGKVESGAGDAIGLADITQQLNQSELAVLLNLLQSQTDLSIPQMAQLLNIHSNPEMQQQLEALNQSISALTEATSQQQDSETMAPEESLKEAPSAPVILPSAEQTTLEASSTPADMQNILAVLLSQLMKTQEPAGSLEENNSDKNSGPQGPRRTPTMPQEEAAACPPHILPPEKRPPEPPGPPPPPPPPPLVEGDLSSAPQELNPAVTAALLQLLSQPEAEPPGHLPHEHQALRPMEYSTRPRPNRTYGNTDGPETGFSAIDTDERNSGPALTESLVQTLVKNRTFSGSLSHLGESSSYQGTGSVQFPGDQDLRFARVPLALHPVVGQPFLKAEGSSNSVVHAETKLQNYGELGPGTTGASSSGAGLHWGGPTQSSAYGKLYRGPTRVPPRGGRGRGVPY"}, "source": "ChEMBL document CHEMBL6114995", "about": "“Discovery of novel imidazo[1,2-b]pyridazine derivatives as potent covalent inhibitors of CDK12/13” (Eur J Med Chem, 2025)", "key": {"[1]": {"molecular_target": "T1, Cyclin-dependent kinase 12 (Homo sapiens, UniProt Q9NYV4)", "conditions": "dose 20.0 nM"}, "[2]": {"molecular_target": "T1, Cyclin-dependent kinase 12", "conditions": "dose 2000.0 nM"}, "[3]": {"molecular_target": "T1, Cyclin-dependent kinase 12", "conditions": "dose 200.0 nM"}}}
{"molecule": "Cn1cc(-n2cnc3c(NCc4nc5cc(Cl)c(Cl)cc5[nH]4)nc(N4CCOCC4)nc32)cn1", "values": [{"measurement": "inhibition", "setting": "[1]", "result": 26.8, "unit": "%"}, {"measurement": "inhibition", "setting": "[2]", "result": 91.2, "unit": "%"}, {"measurement": "inhibition", "setting": "[3]", "result": 56.9, "unit": "%"}]}
